According to ChEMBL document CHEMBL5137134, “Developing the Natural Prenylflavone Artocarpin from Artocarpus hirsutus as a Potential Lead Targeting Pathogenic, Multidrug-Resistant Staphylococcus aureus, Persisters and Biofilms with No Detectable Resistance” (J Nat Prod, 2022):

Test system: Staphylococcus aureus
Test: Synergistic antibacterial activity against Staphylococcus aureus ATCC 29213 assessed as fractional inhibitory concentration incubated for 24 hrs in presence of artocarpin by checkerboard method
Type: functional

**Q.** How did the FIC turn out when `CN(C)c1ccc(O)c2c1C[C@H]1C[C@H]3[C@H](N(C)C)C(O)=C(C(N)=O)C(=O)[C@@]3(O)C(O)=C1C2=O` [MINOCYCLINE] was run?
**A.** Its FIC is 0.5.
